# AlphaSeq binding of Ab-95 light chain variants to a spike HR2 peptide

Source: Engelhart et al. 2022 (doi:10.1038/s41597-022-01779-4), MIT Lincoln Laboratory and A-Alpha Bio; data file from the FLAb repository.

Antigen: PDVDLGDISGINAS, a 14-residue peptide of the SARS-CoV-2 spike HR2 region.

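The starting antibody came from a phage panning campaign against this peptide. Library AAYL52 holds single substitutions and randomly drawn double and triple substitutions in the CDRs. The scFvs were displayed on barcoded MATa yeast, the peptide on MATalpha yeast. Pairs that bind mate more often; barcode pairs of the diploids are counted by sequencing. Read counts were normalised to the haploid input and turned into Kd by a linear fit to BCL2-family pairs of known affinity, for each replicate. Each pool was mated in three replicate cultures.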

Each scFv is VH, three GGGGS repeats, VL, as in the parent Ab-95, and differs from it in the CDRs of the light chain only.
VH: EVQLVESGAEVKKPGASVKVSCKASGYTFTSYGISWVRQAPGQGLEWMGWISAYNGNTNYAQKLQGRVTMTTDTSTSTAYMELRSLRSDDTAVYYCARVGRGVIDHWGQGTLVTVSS
VL: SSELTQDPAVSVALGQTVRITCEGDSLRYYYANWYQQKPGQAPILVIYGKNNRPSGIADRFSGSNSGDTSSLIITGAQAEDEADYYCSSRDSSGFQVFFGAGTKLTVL

The whole VL of each variant is written out. All variants listed here change R28 of the VL, counted from its first residue. The read-out is the apparent dissociation constant on a log10 scale (nM): the lower, the stronger. Averages over replicates are reported, and they cover detected replicates only. "nd" means that the variant was in the library but no mating with the target was seen in that replicate; the authors take this as a sign of poor binding, and no number exists. For reference, the parent read 2.31 as the reference entry and 2.25 as a member of this library. Background: pairings of library AAYL52 with three empty control strains gave a value in 28% of cases (median 3.91, 5th percentile 2.90). Values in that range, when seen in few replicates, are hard to tell from nonspecific mating. The control count says in how many pairings with the empty strains this scFv gave a signal.

With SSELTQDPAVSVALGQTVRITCEGDSLNYIYANWYQQKPGQAPILVIYGKNNRPSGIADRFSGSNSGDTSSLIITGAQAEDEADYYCSVRDSSGFQVFFGAGTKLTVL the result was 2.04, 1.75, 1.36 (mean 1.72; controls 3 of 9). With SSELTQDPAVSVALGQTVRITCEGDSLCNYYANWYQQKPGQAPILVIYGKNNCPSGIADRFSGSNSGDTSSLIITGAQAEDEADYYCSSRDSSGFQVFFGAGTKLTVL the result was nd, nd, nd (controls 3 of 9). With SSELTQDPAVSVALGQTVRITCEGDSLAYYYANWYQQKPGQAPILVIYGKNNRPSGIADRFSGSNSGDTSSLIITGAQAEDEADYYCSSRDSSGFQVFFGAGTKLTVL the result was 2.35, 2.22, 1.56 (mean 2.04; controls 0 of 9). Variant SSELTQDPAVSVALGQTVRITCEGDSLMYEYANWYQQKPGQAPILVIYGKNNRPLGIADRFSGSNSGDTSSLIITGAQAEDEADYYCSSRDSSGFQVFFGAGTKLTVL gave 1.53, 1.41, 1.05 (mean 1.33; controls 1 of 9). For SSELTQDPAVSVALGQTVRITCEGDSLGYYYANWYQQKPGQAPILVIYGKNNRPSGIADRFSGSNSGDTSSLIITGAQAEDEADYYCSDRDSSGYQVFFGAGTKLTVL, the assay gave 3.86, 3.24, 2.90 (mean 3.33; controls 2 of 9).

Variant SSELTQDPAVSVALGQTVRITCEGDSLVYIYANWYQQKPGQAPILVIYGKNNRMSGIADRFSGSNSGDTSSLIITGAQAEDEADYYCSSRDSSGFQVFFGAGTKLTVL showed 3.96, nd, nd (controls 2 of 9). Variant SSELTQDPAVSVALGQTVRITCEGDSLFYYYANWYQQKPGQAPILVIYGKNNRPSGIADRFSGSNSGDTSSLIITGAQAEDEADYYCSSRDSSGFQVYFGAGTKLTVL showed 3.22, 2.81, 2.65 (mean 2.89; controls 6 of 9). For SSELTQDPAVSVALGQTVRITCEGDSLSYYYANWYQQKPGQAPILVIYGKNNRPSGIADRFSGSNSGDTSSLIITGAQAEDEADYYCYSRDSSGFQEFFGAGTKLTVL, the assay gave 3.74, 3.51, nd (mean 3.62; controls 2 of 9). With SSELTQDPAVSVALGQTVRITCEGHSLGYYYANWYQQKPGQAPILVIYGKNNRPSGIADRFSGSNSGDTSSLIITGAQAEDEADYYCSSRDSSGFQVRFGAGTKLTVL the result was 2.78, 2.68, 2.32 (mean 2.59; controls 3 of 9). For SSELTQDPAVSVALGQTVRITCEGDSLIYYYANWYQQKPGQAPILVIYGKNNRPSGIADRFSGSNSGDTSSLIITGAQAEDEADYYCSSRDSSGFQFFFGAGTKLTVL, the assay gave 2.69, 3.11, 3.11 (mean 2.97; controls 4 of 9).

With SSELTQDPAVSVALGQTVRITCEGDSLKYYYANWYQQKPGQAPILVIYGDNNRPSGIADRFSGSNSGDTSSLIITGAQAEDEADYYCSSRDHSGFQVFFGAGTKLTVL the result was 1.30, 1.16, 0.86 (mean 1.11; controls 3 of 9). Variant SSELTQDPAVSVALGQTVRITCEGDSLWYYYANWYQQKPGQAPILVIYGKNNCPSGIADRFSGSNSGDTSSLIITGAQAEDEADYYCSSRDSWGFQVFFGAGTKLTVL gave nd, nd, nd (controls 3 of 9). For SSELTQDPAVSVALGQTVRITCEGDSLLYYYANWYQQKPGQAPILVIYGKNNRPSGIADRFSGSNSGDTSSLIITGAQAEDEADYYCDSRDASGFQVFFGAGTKLTVL, the assay gave 2.73, 2.55, 2.66 (mean 2.65; controls 1 of 9). With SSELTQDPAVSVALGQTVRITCEGDSLYYYYANWYQQKPGQAPILVIYGKNNRPSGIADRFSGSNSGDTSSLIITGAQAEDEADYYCSSRDSSGFQVAFGAGTKLTVL the result was 4.49, 3.17, 2.71 (mean 3.45; controls 0 of 9). With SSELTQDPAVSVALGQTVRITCEHDSLHYYYANWYQQKPGQAPILVIYGKNNRPAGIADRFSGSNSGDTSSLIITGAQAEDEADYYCSSRDSSGFQVFFGAGTKLTVL the result was 3.00, 2.56, 2.71 (mean 2.76; controls 3 of 9).

Variant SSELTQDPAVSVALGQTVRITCLGSSLLYYYANWYQQKPGQAPILVIYGKNNRPSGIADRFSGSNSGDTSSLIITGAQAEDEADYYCSSRDSSGFQVFFGAGTKLTVL showed 3.66, 4.06, 2.98 (mean 3.57; controls 3 of 9). With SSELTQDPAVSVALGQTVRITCEGDSLTYYYGNWYQQKPGQAPILVIYGKNNRPSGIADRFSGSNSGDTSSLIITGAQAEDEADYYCSSRDSSGFQYFFGAGTKLTVL the result was nd, nd, nd (controls 2 of 9). Variant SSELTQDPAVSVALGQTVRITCEGDVLTYSYANWYQQKPGQAPILVIYGKNNRPSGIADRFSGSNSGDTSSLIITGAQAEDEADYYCSSRDSSGFQVFFGAGTKLTVL gave 1.90, 1.85, 1.52 (mean 1.76; controls 3 of 9). Variant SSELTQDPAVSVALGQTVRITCVGDSLPYYYANWYQQKPGQAPILVIYGKNNRPSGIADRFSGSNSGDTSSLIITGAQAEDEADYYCSSRDSSGFQVFFGAGTKLTVL gave 1.70, 1.60, 1.23 (mean 1.51; controls 4 of 9). Variant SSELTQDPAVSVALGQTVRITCMGDSLPYYYANWYQQKPGQAPILVIYGKNNRPSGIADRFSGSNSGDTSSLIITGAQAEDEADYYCCSRDSSGFQVFFGAGTKLTVL gave 3.58, 5.63, nd (mean 4.60; controls 2 of 9).

Variant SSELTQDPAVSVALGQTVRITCEGDSLKYYYANWYQQKPGQAPILVIYGKNNRPSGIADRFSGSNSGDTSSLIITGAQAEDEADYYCSSRDHSGFDVFFGAGTKLTVL showed nd, nd, nd (controls 0 of 9). With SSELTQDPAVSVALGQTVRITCEPDSLHYYYNNWYQQKPGQAPILVIYGKNNRPSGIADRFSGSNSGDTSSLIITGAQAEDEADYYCSSRDSSGFQVFFGAGTKLTVL the result was 2.71, 3.95, nd (mean 3.33; controls 2 of 9).

2 of these entries, quoted again:

VL,"log10 Kd, replicates","log10 Kd (nM), mean",signal with controls
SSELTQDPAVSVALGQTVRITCEGDSLGYYYANWYQQKPGQAPILVIYGKNNRPSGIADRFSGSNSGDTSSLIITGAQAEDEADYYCSDRDSSGYQVFFGAGTKLTVL,"3.86, 3.24, 2.90",3.33,2 of 9
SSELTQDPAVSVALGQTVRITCEGDSLLYYYANWYQQKPGQAPILVIYGKNNRPSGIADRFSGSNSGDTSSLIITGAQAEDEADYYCDSRDASGFQVFFGAGTKLTVL,"2.73, 2.55, 2.66",2.65,1 of 9